# Antibody variant affinities, Ab-14 light chain, assay 1

The measurements come from Engelhart et al. 2022 (doi:10.1038/s41597-022-01779-4) through the FLAb antibody collection.

All variants were tested on one target, the spike HR2 peptide PDVDLGDISGINAS (SARS-CoV-2).

Parent scFv Ab-14: VH joined to VL by a 15-residue (Gly4Ser)3 linker. Changes lie in the light chain CDRs alone.
VH: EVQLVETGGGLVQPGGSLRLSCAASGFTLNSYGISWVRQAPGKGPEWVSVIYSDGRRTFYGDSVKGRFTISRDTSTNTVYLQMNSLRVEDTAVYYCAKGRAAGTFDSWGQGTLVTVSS
VL: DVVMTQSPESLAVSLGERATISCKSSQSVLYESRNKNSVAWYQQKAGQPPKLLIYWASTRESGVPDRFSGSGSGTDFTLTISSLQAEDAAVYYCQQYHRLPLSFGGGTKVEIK

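The library (AAYL50) carries one to three amino acid substitutions per variant, with no insertions or deletions. The scFvs were displayed on barcoded MATa yeast, the peptide on MATalpha yeast. Binding brings cells together so that they mate, and sequencing counts the barcode pairs among the diploids. The ratio of observed to expected reads was calibrated, replicate by replicate, on BCL2-family standards whose Kd was known from biolayer interferometry. Mating was done three times.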

Variants are written as CDR1, CDR2 and CDR3 of the light chain (limits as in the source). Parent: KSSQSVLYESRNKNSVA, WASTRES, QQYHRLPLS. Scale: log10 of Kd in nM, estimated from mating counts; low values are strong binders. The mean shown is taken over the replicates in which the pair was detected. "n.d." marks a missing value. The strain was present, yet no cells mated with the target were sequenced in that replicate, which points to weak or no binding. Empty control strains, which show no peptide, gave a signal in 18% of pairings with library AAYL50; the median was 4.19 and 95% of these signals were weaker than 2.99. No background was subtracted. The control count says in how many pairings with the empty strains this scFv gave a signal, with their mean in brackets. For reference, the parent read 0.65 as the reference entry and 1.68 as a member of this library.

CDR-L1	CDR-L2	CDR-L3	replicates, log10 nM	log10 Kd (nM), mean	signal with controls
KSSWSVLYESRNKNSVA	WVSTRES	QQYHMLPLS	2.57 3.08 2.73	2.79	1 of 9 (3.21)
KSSQTNLYESRNKNSVA	WASTRES	QQYHVLPLS	0.56 0.97 1.32	0.95	0 of 9
KSSQSVLYDSRNKNSVA	WATTRES	QQYYRLPLS	0.42 0.68 0.63	0.58	0 of 9
KESQSALYESRNKNSVA	WASTRES	QVYHRLPLS	3.55 3.15 3.12	3.27	1 of 9 (3.67)
KSSQSVTYESRNKNSVA	WAFTRES	QQYERLPLS	3.60 n.d. 4.25	3.92	3 of 9 (4.12)
KSSQSVLRESRNKNSVA	WASAREV	QQYHRLPLS	1.45 2.70 1.47	1.87	0 of 9
KSSQSVLYESANKNSVA	WASTVCS	QQYHRLPLS	0.87 1.07 1.06	1.00	2 of 9 (4.01)
KSSLSVLYESRNKNSVA	WASNRES	HQYHRLPLS	6.22 n.d. n.d.	6.22	4 of 9 (3.99)
KSSDSVLYELRNKNSVD	WASTRES	QQYHRLPLS	n.d. 3.27 n.d.	3.27	1 of 9 (4.80)
KSSQSVLYESRNKNSVA	WASTRKS	GQYHRLPLS	n.d. n.d. n.d.	n.d.	2 of 9 (3.78)
KSSASVLYESRNKNCVA	WASTRES	QQYHRLPTS	n.d. n.d. n.d.	n.d.	0 of 9
FSIQSVLYESRNKNSVA	WASTRES	EQYHRLPLS	n.d. n.d. 4.71	4.71	0 of 9
KSIQSVLYESRNKNSAA	WASTAES	QQYHRLPLS	n.d. n.d. n.d.	n.d.	0 of 9
KSSQSVLYEHRNKNSVA	WASTREW	QQYHGLPLS	6.36 5.50 4.48	5.45	5 of 9 (4.78)
RSSQSVDYESRNKNSVA	WASTRES	QQYHRLPES	n.d. n.d. 2.37	2.37	0 of 9
KSSQSVLYESRNFNSVA	WASTRES	QQYHRCPLS	1.21 1.58 1.82	1.54	3 of 9 (3.79)
KSSQSVLYESRNKNSVA	WASTRQS	QQYHGLPLE	n.d. n.d. n.d.	n.d.	2 of 9 (4.66)
KSSQMVVYESRNKNSVD	WASTRES	QQYHRLPLS	n.d. 3.03 n.d.	3.03	0 of 9
KSSQSVLYESRNKFSVA	WASTREF	HQYHRLPLS	1.27 1.19 1.80	1.42	0 of 9
KSSQSVLYESRNKNSVA	WASTRES	IQYCGLPLS	n.d. 3.79 n.d.	3.79	4 of 9 (4.72)
LSSQSYLYESRNKNSVA	WASTRES	QQYHRLALS	n.d. n.d. n.d.	n.d.	2 of 9 (3.48)
KSSQSPLYESRNKNWVA	WASTRES	PQYHRLPLS	n.d. 4.50 n.d.	4.50	1 of 9 (4.44)
KSSQSVLYESLNKNSVA	WLSTRES	IQYHRLPLS	3.17 n.d. n.d.	3.17	4 of 9 (4.18)
KSSQSVLYESRNFNTCA	WASTRES	QQYHRLPLS	n.d. 3.07 n.d.	3.07	1 of 9 (3.79)
KSSQSVLYESRNKNSVA	QASTCES	QQQHRLPLS	2.54 2.86 2.72	2.71	8 of 9 (4.50)
HSSQSVLYESRNKNSVA	WAVTRCS	QQYHRLPLS	1.71 1.48 1.71	1.63	1 of 9 (4.12)
KSSQSWLSESRNKNSVA	WASTRES	QQYHWLPLS	1.28 1.64 2.17	1.70	0 of 9
ESSQSVLYNSRNKNSVA	WASTRES	FQYHRLPLS	2.70 5.03 n.d.	3.87	3 of 9 (3.45)
KSSKSVLYESRNKNSVA	WASTEES	QQYHRLPIS	n.d. n.d. n.d.	n.d.	1 of 9 (4.23)
KSSQSVLYESRNKNSVA	WMSTRES	QQWHRLPLA	1.48 1.69 1.68	1.61	4 of 9 (4.41)
KSSQSVLYMCRNKNSVA	WASTRLS	QQYHRLPLS	n.d. n.d. n.d.	n.d.	0 of 9
KSSQSALEESRNKNSVA	WADTRES	QQYHRLPLS	0.84 1.13 1.00	0.99	2 of 9 (4.94)
KSSQSMLYESRNVNSVA	WAITRES	QQYHRLPLS	1.72 2.09 1.41	1.74	0 of 9
KYSQSVLYESRNKNSVA	WANTRES	QQYHRLGLS	n.d. n.d. n.d.	n.d.	1 of 9 (4.58)
KSSQSVLFESRNKNSVA	WASTEES	QQYHRDPLS	n.d. 3.16 n.d.	3.16	0 of 9

The 4 strongest on average among those seen in every replicate, once more:

CDR-L1	CDR-L2	CDR-L3	replicates, log10 nM	log10 Kd (nM), mean	signal with controls
KSSQSVLYDSRNKNSVA	WATTRES	QQYYRLPLS	0.42 0.68 0.63	0.58	0 of 9
KSSQTNLYESRNKNSVA	WASTRES	QQYHVLPLS	0.56 0.97 1.32	0.95	0 of 9
KSSQSALEESRNKNSVA	WADTRES	QQYHRLPLS	0.84 1.13 1.00	0.99	2 of 9 (4.94)
KSSQSVLYESANKNSVA	WASTVCS	QQYHRLPLS	0.87 1.07 1.06	1.00	2 of 9 (4.01)